Laboratory results published in US20250257034A1, “INDOLE DERIVATIVES AS SEROTONERGIC AGENTS USEFUL FOR THE TREATMENT OF DISORDERS RELATED THERETO” (priority 2023, published 2025).
Where two headings read alike, the source gives them in different places.

Amino acid sequences for entries named in this document (tags omitted).
UniProt P08908, whole entry: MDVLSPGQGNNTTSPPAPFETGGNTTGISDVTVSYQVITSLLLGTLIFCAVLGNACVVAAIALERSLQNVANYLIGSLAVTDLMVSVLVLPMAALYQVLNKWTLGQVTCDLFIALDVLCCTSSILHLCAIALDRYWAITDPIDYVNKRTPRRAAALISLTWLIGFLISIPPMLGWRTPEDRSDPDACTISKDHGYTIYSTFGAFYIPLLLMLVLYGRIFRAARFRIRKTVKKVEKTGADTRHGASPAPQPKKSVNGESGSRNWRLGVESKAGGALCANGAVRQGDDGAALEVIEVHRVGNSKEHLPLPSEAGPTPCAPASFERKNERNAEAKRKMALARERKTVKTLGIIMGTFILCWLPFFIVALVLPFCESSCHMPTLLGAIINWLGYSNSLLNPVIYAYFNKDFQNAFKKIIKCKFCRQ

Tests used:
[1] = target: T1, human 5-HT1A receptor (Homo sapiens, UniProt P08908); test: Human 5-HT1A radioligand binding assay ([3H]-8-Hydroxy-DPAT); set-up: expressed in transfected cells; host or cells: HTR1A&Gα15-CHO; conditions: read-out: h5-HT1A, IC50
Method: The objective of this study was to evaluate the binding properties of test compounds on 5-hydroxytryptamine receptor 1A (5-HT1A).
1. The assay buffer was prepared following Table 21 below.
2. 8 doses of reference and test compounds were prepared starting from 10 mM stock solution as required by 5-fold serial dilutions with 100% (v/v) DMSO.
3. UniFilter-96 GF/B plate was pretreated: • i. 50 μl/well of 0.5% (v/v) PEI was added to UniFilter-96 G F/B plates. The plates were sealed and incubated at 4° C. for 3 hrs. • ii. After incubation, the plates were washed 3 times with ice-cold wash buffer (50 mM Tris, pH7.4).
4. Assay plate was prepared: • i. Cell membrane was diluted with assay buffer and 100 μl/well was added to 96 round well plates to reach a concentration of 20 μg/well. • ii. 8 concentrations of reference or test compounds were prepared and 50 μl/well was added to 96 round deep well plates. • iii. […]
10. The plate was read by using a Microbeta^2 microplate counter.
1. For reference and test compounds, the results were expressed as % Inhibition, using the normalization equation: N=100-100x(U-C2)/(C1-C2), where U is the unknown value, C1 is the average of high controls, and C2 is the average of low controls.
2. The IC50 was determined by fitting percentage of inhibition as a […] of compound concentrations with Hill equation using XLfit. […]

[2] = target: T1, human 5-HT1A receptor; test: Human 5HT1A cAMP assay in CHO-K1 cells; type: cell-based; set-up: expressed in transfected cells; conditions: for EC50: cAMP assay with forskolin
Method: Compound potency (EC50) and efficacy (Max response) against the human 5-HT1A receptor in stably transfected CHO-K1 cells was determined in a GPCR cell-based cAMP assay.
(§1) Cells were seeded in a total volume of 20 μL into white walled, 384-well microplates and incubated at 37° C. overnight before analysis. Prior to testing, cell plating media was exchanged with 10 μL of Assay buffer (HBSS+10 mM HE P E S). Briefly, intermediate dilution of sample stocks was performed to generate 4×sample in assay buffer. 5 μL of 4×sample+5 μL of 4×forskolin was added to cells and incubated at 37° C. for 30 minutes. Final assay vehicle concentration was 1%. The results are expressed as a percent efficacy relative to the maximum response of the control ligand (serotonin) in Table 27.
as §1, with “HEPES).” for “HE P E S).”, “4×sample +5” for “4×sample+5”, “56.” for “27.”

Compound | IC50 ([1]; [3H]-8-Hydroxy-DPAT displacement (Table 22)) [nM] | IC50 ([1]; [3H]-8-Hydroxy-DPAT displacement (Table 51)) [nM] | EC50 ([2]; CHO-K1 cells (Table 27)) [nM] | EC50 ([2]; CHO-K1 cells (Table 56)) [nM] | Emax (% of serotonin) ([2]; relative to maximum response of serotonin (Table 27)) | Emax (% of serotonin) ([2]; relative to maximum response of serotonin (Table 56))
COc1ccc2[nH]cc(CCN(C)C)c2c1 [Compound 5-MeO-DMT] | 6 | 6 |  |  |  | 
COc1ccc2[nH]cc(CCN(C)C)c2c1 [Compound 5MeO-DMT] |  |  | 12.7 | 12.7 | 99.98 % of serotonin | 99.98 % of serotonin
